Experimental data as given in paper PMC12251305 (Molecules, 2025).

Amino acid sequences for entries named in this document (tags omitted).
UniProt P41143, whole entry: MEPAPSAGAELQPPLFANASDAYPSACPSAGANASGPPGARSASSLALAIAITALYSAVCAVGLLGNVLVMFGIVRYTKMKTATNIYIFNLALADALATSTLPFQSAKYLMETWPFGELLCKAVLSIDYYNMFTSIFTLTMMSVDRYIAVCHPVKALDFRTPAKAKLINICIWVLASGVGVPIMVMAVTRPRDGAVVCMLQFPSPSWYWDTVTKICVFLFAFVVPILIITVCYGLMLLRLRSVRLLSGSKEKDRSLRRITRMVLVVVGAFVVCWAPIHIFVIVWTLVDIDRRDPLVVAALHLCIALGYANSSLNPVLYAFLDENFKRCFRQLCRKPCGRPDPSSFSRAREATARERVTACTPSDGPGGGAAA

Target: DOR (Homo sapiens, UniProt P41143)
Experiment: Radioligand competition binding at DOR
Details: read-out: Receptor Binding, Ki ± SEM DOR

C[C@@H](NC(=O)[C@@H](N)Cc1ccc(O)cc1)C(=O)NCC(=O)N(C)[C@@H](Cc1ccccc1)C(=O)NCCO [DAMGO, [D-Ala2,N-MePhe4,glyol]enkephalin, reference compound]
Ki: 857 ± 61 nM
